Data reported in PubChem BioAssay (NCI).
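Exposure lasted 48 hours, with cells grown in 96-well plates and compounds tested at five concentrations. Abbreviation: GI50, concentration required for 50% inhibition of growth. Definition used: TGI = concentration required for complete inhibition of growth.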

Experiments:
Assay in all cases: inhibition of tumour cell growth, NCI panel, 48 h
OVCAR-8 ovarian = system: OVCAR-8 ovarian
UO-31 renal = system: UO-31 renal
MALME-3M melanoma = system: MALME-3M melanoma
NCI-H23 lung = system: NCI-H23 lung
SF-268 CNS = system: SF-268 CNS
MOLT-4 leukemia = system: MOLT-4 leukemia
SF-295 CNS = system: SF-295 CNS
MDA-N = system: MDA-N
OVCAR-3 ovarian = system: OVCAR-3 ovarian
SK-OV-3 ovarian = system: SK-OV-3 ovarian
KM12 colon = system: KM12 colon
HCC-2998 colon = system: HCC-2998 colon
IGROV1 ovarian = system: IGROV1 ovarian
LOX IMVI melanoma = system: LOX IMVI melanoma
TK-10 renal = system: TK-10 renal
SN12C renal = system: SN12C renal
SNB-19 CNS = system: SNB-19 CNS
HOP-62 NSCLC = system: HOP-62 NSCLC
NCI-H460 lung = system: NCI-H460 lung
SF-539 CNS = system: SF-539 CNS
A549 NSCLC = system: A549 NSCLC
HT29 colon = system: HT29 colon
UACC-257 melanoma = system: UACC-257 melanoma
A498 renal = system: A498 renal
NCI-H322M lung = system: NCI-H322M lung
U251 CNS = system: U251 CNS
MDA-MB-231 breast = system: MDA-MB-231 breast
SK-MEL-5 melanoma = system: SK-MEL-5 melanoma
HOP-92 NSCLC = system: HOP-92 NSCLC
OVCAR-5 ovarian = system: OVCAR-5 ovarian
BT-549 breast = system: BT-549 breast
CCRF-CEM leukemia = system: CCRF-CEM leukemia
HCT-15 colon = system: HCT-15 colon
SR leukemia = system: SR leukemia
MDA-MB-435 = system: MDA-MB-435
SW-620 colon = system: SW-620 colon
HL-60(TB) leukemia = system: HL-60(TB) leukemia
EKVX NSCLC = system: EKVX NSCLC
DU-145 prostate = system: DU-145 prostate
CAKI-1 renal = system: CAKI-1 renal
SK-MEL-2 melanoma = system: SK-MEL-2 melanoma
M14 melanoma = system: M14 melanoma
PC-3 prostate = system: PC-3 prostate
MCF7 breast = system: MCF7 breast
NCI-H522 lung = system: NCI-H522 lung
K-562 leukemia = system: K-562 leukemia
SNB-75 CNS = system: SNB-75 CNS
RXF 393 renal = system: RXF 393 renal
HCT-116 colon = system: HCT-116 colon
OVCAR-4 ovarian = system: OVCAR-4 ovarian
786-0 renal = system: 786-0 renal
NCI-H226 lung = system: NCI-H226 lung
COLO 205 colon = system: COLO 205 colon
HS 578T breast = system: HS 578T breast
NCI/ADR-RES ovarian = system: NCI/ADR-RES ovarian
SK-MEL-28 melanoma = system: SK-MEL-28 melanoma
ACHN renal = system: ACHN renal
UACC-62 melanoma = system: UACC-62 melanoma

Compound O=[N+]([O-])c1ccc2c(c1)/C(=N/N=C1/c3cc([N+](=O)[O-])ccc3-c3c1cc([N+](=O)[O-])cc3[N+](=O)[O-])c1cc([N+](=O)[O-])cc([N+](=O)[O-])c1-2 has a GI50 (OVCAR-8 ovarian) of 4.85 µM, a TGI (OVCAR-8 ovarian) of 34.1 µM and a GI50 (UO-31 renal) of 3.82 µM. For the same compound, the TGI (UO-31 renal) was 13.7 µM, the GI50 (MALME-3M melanoma) was 6.55 µM and the TGI (MALME-3M melanoma) was 19 µM. It also gave a GI50 (NCI-H23 lung) of 4.37 µM, a TGI (NCI-H23 lung) of 19.8 µM and a GI50 (SF-268 CNS) of 1.62 µM. The TGI (SF-268 CNS) was 9.42 µM, the GI50 (MOLT-4 leukemia) was 2.01 µM and the TGI (MOLT-4 leukemia) was 4.83 µM. The GI50 (SF-295 CNS) was 23.5 µM, the TGI (SF-295 CNS) was 47.1 µM and the GI50 (MDA-N) was 4.58 µM. It also gave a TGI (MDA-N) of 19.3 µM, a GI50 (OVCAR-3 ovarian) of 2.04 µM and a TGI (OVCAR-3 ovarian) of 4.25 µM. It also gave a GI50 (SK-OV-3 ovarian) of 4.93 µM, a TGI (SK-OV-3 ovarian) of 19.6 µM and a GI50 (KM12 colon) of 3.28 µM. The TGI (KM12 colon) was 11.3 µM, the GI50 (HCC-2998 colon) was 14.7 µM and the TGI (HCC-2998 colon) was 28.3 µM. The GI50 (IGROV1 ovarian) was 5.04 µM, the TGI (IGROV1 ovarian) was 20.4 µM and the GI50 (LOX IMVI melanoma) was 12.9 µM. The TGI (LOX IMVI melanoma) was 30 µM, the GI50 (TK-10 renal) was 3.67 µM and the TGI (TK-10 renal) was 14.1 µM. The GI50 (SN12C renal) was 8.85 µM, the TGI (SN12C renal) was 22.8 µM and the GI50 (SNB-19 CNS) was 5.04 µM. It also gave a TGI (SNB-19 CNS) of 23.9 µM, a GI50 (HOP-62 NSCLC) of 3 µM and a TGI (HOP-62 NSCLC) of 8.04 µM. The GI50 (NCI-H460 lung) was 3.72 µM, the TGI (NCI-H460 lung) was 20.9 µM and the GI50 (SF-539 CNS) was 3.1 µM. For the same compound, the TGI (SF-539 CNS) was 8.59 µM, the GI50 (A549 NSCLC) was 6.46 µM and the TGI (A549 NSCLC) was 27.6 µM. It also gave a GI50 (HT29 colon) of 20 µM, a TGI (HT29 colon) of 53.8 µM and a GI50 (UACC-257 melanoma) of 11.2 µM. The TGI (UACC-257 melanoma) was 32.4 µM, the GI50 (A498 renal) was 7.66 µM and the TGI (A498 renal) was 20.5 µM. For the same compound, the GI50 (NCI-H322M lung) was 3.95 µM, the TGI (NCI-H322M lung) was 21.4 µM and the GI50 (U251 CNS) was 4.34 µM. The TGI (U251 CNS) was 16.8 µM, the GI50 (MDA-MB-231 breast) was 7.43 µM and the TGI (MDA-MB-231 breast) was 23 µM. For the same compound, the GI50 (SK-MEL-5 melanoma) was 3.43 µM, the TGI (SK-MEL-5 melanoma) was 14.3 µM and the GI50 (HOP-92 NSCLC) was 13.3 µM. For the same compound, the TGI (HOP-92 NSCLC) was 40.2 µM, the GI50 (OVCAR-5 ovarian) was 4.36 µM and the TGI (OVCAR-5 ovarian) was 18.3 µM. It also gave a GI50 (BT-549 breast) of 3.4 µM, a TGI (BT-549 breast) of 16.6 µM and a GI50 (CCRF-CEM leukemia) of 2.1 µM. For the same compound, the TGI (CCRF-CEM leukemia) was 5 µM, the GI50 (HCT-15 colon) was 5.63 µM and the TGI (HCT-15 colon) was 41.3 µM. For the same compound, the GI50 (SR leukemia) was 2.29 µM, the TGI (SR leukemia) was 6.74 µM and the GI50 (MDA-MB-435) was 3.27 µM. For the same compound, the TGI (MDA-MB-435) was 9.27 µM, the GI50 (SW-620 colon) was 11 µM and the TGI (SW-620 colon) was 96.6 µM. The GI50 (HL-60(TB) leukemia) was 4.67 µM, the TGI (HL-60(TB) leukemia) was 7.86 µM and the GI50 (EKVX NSCLC) was 4.26 µM. For the same compound, the TGI (EKVX NSCLC) was 21.3 µM, the GI50 (DU-145 prostate) was 2.73 µM and the TGI (DU-145 prostate) was 11.2 µM. It also gave a GI50 (CAKI-1 renal) of 2.62 µM, a TGI (CAKI-1 renal) of 7.68 µM and a GI50 (SK-MEL-2 melanoma) of 5.89 µM. It also gave a TGI (SK-MEL-2 melanoma) of 20.8 µM, a GI50 (M14 melanoma) of 10.7 µM and a TGI (M14 melanoma) of 24.9 µM. For the same compound, the GI50 (PC-3 prostate) was 4.14 µM, the TGI (PC-3 prostate) was 22.3 µM and the GI50 (MCF7 breast) was 1.35 µM. The TGI (MCF7 breast) was 10.7 µM, the GI50 (NCI-H522 lung) was 5.27 µM and the TGI (NCI-H522 lung) was 19.3 µM. It also gave a GI50 (K-562 leukemia) of 17.6 µM, a TGI (K-562 leukemia) of 41.9 µM and a GI50 (SNB-75 CNS) of 5.13 µM. The TGI (SNB-75 CNS) was 22 µM, the GI50 (RXF 393 renal) was 1.72 µM and the TGI (RXF 393 renal) was 16.8 µM. It also gave a GI50 (HCT-116 colon) of 4.49 µM, a TGI (HCT-116 colon) of 19.1 µM and a GI50 (OVCAR-4 ovarian) of 9.23 µM. It also gave a TGI (OVCAR-4 ovarian) of 28.2 µM, a GI50 (786-0 renal) of 2.58 µM and a TGI (786-0 renal) of 6.6 µM. The GI50 (NCI-H226 lung) was 7.75 µM, the TGI (NCI-H226 lung) was 25.1 µM and the GI50 (COLO 205 colon) was 5.13 µM. For the same compound, the TGI (COLO 205 colon) was 16.3 µM, the GI50 (HS 578T breast) was 12.2 µM and the TGI (HS 578T breast) was 72.8 µM. For the same compound, the GI50 (NCI/ADR-RES ovarian) was 5.8 µM, the TGI (NCI/ADR-RES ovarian) was 34.5 µM and the GI50 (SK-MEL-28 melanoma) was 12.3 µM. For the same compound, the TGI (SK-MEL-28 melanoma) was 36 µM, the GI50 (ACHN renal) was 5.52 µM and the TGI (ACHN renal) was 63.8 µM. It also gave a GI50 (UACC-62 melanoma) of 9.39 µM and a TGI (UACC-62 melanoma) of 35.1 µM.
